In article PMC6465285, “Arsinothricin, an arsenic-containing non-proteinogenic amino acid analog of glutamate, is a broad-spectrum antibiotic” (Communications Biology, 2019) one finds Km, kcat and kcat/Km data, which are given here for one substance.

The series deals with CP(=O)(O)CC[C@H](N)C(=O)O. As to the kind of experiment: purified protein. As to conditions: two conformations: PPT-1 as L-AST; PPT-2 with Phe33a, Ala124a, Val158a, Arg77b, Arg75b, Tyr80b, Val86a, Gly122a.

Broadly, the Km is the concentration of substrate that gives half-maximal velocity. The term kcat denotes the number of substrate molecules converted per active site and unit of time at saturation. One may read the kcat/Km as the turnover number divided by the Michaelis constant. As to “PpArsN1 (ArsN1 N-acetyltransferase) (Pseudomonas putida KT2440)”, the Michaelis-Menten constant (Km) was found to be 1000 ± 200 µM, the kcat stood at 9.6 s⁻¹ and the kcat/Km came to 10000 M⁻¹ s⁻¹.
